Data on 1 compound can be found in publication PMC5584254, “Identification of novel small molecule Beclin 1 mimetics activating autophagy” (Oncotarget, 2017).

Amino acid sequences for entries named in this document (tags omitted).
UniProt Q07817, whole entry: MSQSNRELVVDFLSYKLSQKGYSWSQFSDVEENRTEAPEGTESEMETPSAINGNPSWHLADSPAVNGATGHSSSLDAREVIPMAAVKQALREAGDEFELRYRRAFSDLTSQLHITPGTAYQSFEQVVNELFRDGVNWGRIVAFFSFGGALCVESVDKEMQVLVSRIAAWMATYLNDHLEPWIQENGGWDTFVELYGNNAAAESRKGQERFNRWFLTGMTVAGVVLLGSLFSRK

SMILES strings stand for the structures.

The target in test [1] is T1, Bcl-xL protein (Homo sapiens, UniProt Q07817).
T1 construct: made in house
The experiment in a line: FP direct binding of fluorescein-labeled BH3 peptides to Bcl-xL. The note with it: Bcl-xL titrated to 50 nM fluorescent peptide. On the procedure:
Figure 1 FP-based HTS for Beclin 1 mimetics (A) Schematic presentation of the Beclin 1 protein and sequences of five synthetic peptides modified from Beclin 1 BH3 peptide. Diagram of human Beclin 1 protein with different domains is shown in the bottom. BH3 domain is necessary and sufficient for interaction with Bcl-2/Bcl-xL. Amino acids in red are the critical residues for the binding. (B) Five fluorescein-labeled Beclin 1 BH3 peptides were tested for their binding ability to Bcl-xL protein in FP assay. Fluorescein-labeled Bak BH3 peptide was used as a positive control. Bcl-xL protein was titrated to a solution of 50 nM peptides. (C) Competitive binding assay with positive controls, ABT-263 and (–)-gossypol ((–)G). […] (D–E) HTS was performed with ~50000 compounds from Prestwick, Microsource, CMLD and Chembridge libraries. The four libraries were divided into two groups and screened separately. Compounds activity (percent of inhibition) of first screen (D) and second screen (E) were shown with Z′ value indicated on top. […]
All N′-fluorescein-labeled peptides were purchased from Kansas State University (Manhattan, KS). […] Anisotropy measurements were taken at room temperature using a BioTek Synergy H4 plate reader (Biotek, Winooski, VT) following the protocol recommended by the manufacture. […] After 2 h incubation, the plate was read and polarization was calculated.

The target of test [2] is T1, Bcl-xL protein. The experiment in a line: Surface plasmon resonance assay, immobilized Bcl-xL. Type of test: binding. The note with it: SPR kinetic analysis, 1:1 model. On the procedure:
The surface plasmon resonance experiments were performed using a Biacore 3000 (GE Healthcare Pittsburgh, PA) equipped with a research-grade CM5 sensor chip. The ligand (Bcl-xL) was immobilized using amine-coupling chemistry. The surfaces of flow cells on a Biacore sensor chip CM5 were activated for 7 min with a 1:1 mixture of 0.1 M NHS (N-hydroxysuccinimide) and 0.1 M EDC (3-(N,N-dimethylamino) propyl-N-ethylcarbodiimide) at a flow rate of 5 μL/min. The ligand (Bcl-xL) at a concentration of 180 μg/mL in 10 mM sodium acetate, pH 4.5, was immobilized at a density of about 10000 RU on flow cell 2; the ligand (SUMO-Bcl-2, 37.5 kDa, > 90% pure based on SDS–PAGE) at a concentration of 44 μg/ml in 10 mM sodium acetate, pH 4.5, was immobilized at a density of 10000 RU on flow cell 3; flow cell 1 was left blank to serve as a reference surface. All the surfaces were blocked with a 7 min injection of 1 M ethanolamine, pH 8.0.
For kinetic analysis, a concentration series of analyte were injected over the flow cells at a flow rate of 60 μL/min at 20 °C. The complex was allowed to associate and dissociate for 120 and 180 s, respectively. […]
All measurements were taken with flow cell 1 as a reference (i.e. sensorgram depicts “2–1 correction”) and corrected for DMSO bulk differences via the calibration curves. […] The equilibrium dissociation constant (KD) was determined by Kd/Ka.

For the compound `CC[C@H](C)[C@H](NC(=O)[C@H](CC(=O)O)NC(=O)[C@H](Cc1ccccc1)NC(=O)[C@H](CC(C)C)NC(=O)[C@H](CC(=O)O)NC(=O)CNC(=O)[C@@H](NC(=O)[C@@H](NC(=O)[C@H](CCCCN)NC(=O)[C@H](CC(C)C)NC(=O)[C@H](CCCNC(=N)N)NC(=O)[C@H](CCCNC(=N)N)NC(=O)[C@H](CO)NC(=O)[C@H](CC(C)C)NC(=O)[C@H](CC(N)=O)NC(=O)[C@H](CCC(=O)O)NC(=O)[C@H](CCSC)NC(=O)[C@@H](N)[C@@H](C)O)C(C)C)[C@@H](C)O)C(=O)N[C@@H](CCSC)C(=O)N[C@@H](CO)C(=O)O` [Compound 20-mer], at Bcl-xL protein [1], the “binding to Bcl-xL in FP assay” value is listed as “good binding curves”. Besides, the kon at Bcl-xL protein [2] (read-out: association rate (Ka) to Bcl-xL) stood at 138000 M⁻¹ s⁻¹. In addition, the koff at Bcl-xL protein [2] (read-out: dissociation rate (Kd) from Bcl-xL) worked out at 1 s⁻¹.
